In experiment [1] the target is T1, N36 (gp41 NHR-derived peptide) (Human immunodeficiency virus type 1 group M subtype B, UniProt P04578).
T1 construct: a synthetic peptide derived from the NHR segment of HIV-1 gp41, namely, N36
Briefly: CD spectroscopy and thermal denaturation of equimolar mixtures with N36. Format: binding, HIV-1. The settings on record: 10 μM each peptide, in the presence of 2 M Gdn·HCl.

Experiment [2] deals with HIV-1 92UG029 (subtype A, X4). The class given is cell-based.
Experiment [3] concerns the target T1, N36 (gp41 NHR-derived peptide). Kind of experiment: Native PAGE (N-PAGE) binding to N36. On the set-up: species or system HIV-1. The settings on record: equimolar mixtures, 100 μM each peptide.
Experiment [4] relates to HIV-1 strain 89BZ167 (subtype B, X4). Format: cell-based. The note with it: primary isolate 89BZ167, subtype B, CEMx174 5.25 M7 cells.
Experiment [5] deals with HIV-1 J32228M4 (subtype D, R5). The class given is cell-based.
In experiment [6] the test system is HIV-1 91US_4 (subtype B, R5). Format: cell-based. The note with it: 91US 4 (subtype B, R5).

Structures are written as SMILES.

The EC50 is the midpoint of the concentration-response curve. `CC[C@H](C)[C@H](NC(=O)[C@H](CO)NC(=O)[C@H](CCC(=O)O)NC(=O)[C@H](CCC(=O)O)NC(=O)[C@H](CCC(N)=O)NC(=O)[C@H](CCCCN)NC(=O)[C@H](CCCCN)NC(=O)[C@@H](NC(=O)[C@H](CCC(N)=O)NC(=O)[C@H](CCC(=O)O)NC(=O)[C@H](CCC(=O)O)NC(=O)[C@@H](NC(=O)[C@H](CCCCN)NC(=O)[C@H](CCCCN)NC(=O)[C@@H](NC(=O)[C@H](CC(C)C)NC(=O)[C@H](CCC(=O)O)NC(=O)[C@H](CCC(=O)O)NC(=O)[C@H](CO)NC(=O)[C@H](CCCCN)NC(=O)[C@H](CCCCN)NC(=O)[C@@H](NC(=O)[C@H](CC(C)C)NC(=O)[C@H](CCC(=O)O)NC(=O)[C@H](CCC(=O)O)NC(=O)[C@@H](NC(=O)[C@H](CCCCN)NC(=O)[C@H](CCCCN)NC(=O)[C@H](CC(=O)O)NC(=O)[C@H](Cc1c[nH]c2ccccc12)NC(=O)[C@H](CCC(=O)O)NC(=O)[C@H](CCC(=O)O)NC(=O)[C@H](Cc1c[nH]c2ccccc12)NC(=O)[C@@H](NC(=O)[C@H](CCSC)NC(C)=O)[C@@H](C)O)[C@@H](C)CC)[C@@H](C)CC)[C@@H](C)CC)[C@@H](C)CC)[C@@H](C)CC)C(=O)N[C@@H](CCCCN)C(=O)N[C@@H](CCCCN)C(N)=O` [AP3]: the “thermal unfolding transition (Tm) of complex with N36” value in experiment [1] worked out at 68 °C. Moreover, the EC50 in experiment [2] turned out to be 3.1 ± 0.1 nM; in experiment [4] it was 11.6 ± 0.5 nM; in experiment [5], 59 ± 6.1 nM; in experiment [6], 10.7 ± 1.2 nM. Besides, in experiment [3], the “binding to N36 by N-PAGE” value is reported as “bound to N36”.
For the compound `CC[C@H](C)[C@H](NC(=O)[C@H](CO)NC(=O)[C@H](CCC(=O)O)NC(=O)[C@H](CCC(=O)O)NC(=O)[C@H](CCC(N)=O)NC(=O)[C@H](CCCCN)NC(=O)[C@H](CCCCN)NC(=O)[C@@H](NC(=O)[C@H](CCC(N)=O)NC(=O)[C@H](CCC(=O)O)NC(=O)[C@H](CCC(=O)O)NC(=O)[C@@H](NC(=O)[C@H](CCCCN)NC(=O)[C@H](CCCCN)NC(=O)[C@@H](NC(=O)[C@H](CC(C)C)NC(=O)[C@H](CCC(=O)O)NC(=O)[C@H](CCC(=O)O)NC(=O)[C@H](CO)NC(=O)[C@H](CCCCN)NC(=O)[C@H](CCCCN)NC(=O)[C@@H](NC(=O)[C@H](CC(C)C)NC(=O)[C@H](CCC(=O)O)NC(=O)[C@H](CCC(=O)O)NC(=O)[C@@H](NC(=O)[C@H](CCCCN)NC(=O)[C@H](CCCCN)NC(=O)[C@H](CC(=O)O)NC(=O)[C@H](Cc1c[nH]c2ccccc12)NC(=O)[C@H](CCC(=O)O)NC(=O)[C@H](CCC(=O)O)NC(=O)[C@H](Cc1c[nH]c2ccccc12)NC(=O)[C@@H](NC(=O)[C@H](CCSC)NC(C)=O)[C@@H](C)O)[C@@H](C)CC)[C@@H](C)CC)[C@@H](C)CC)[C@@H](C)CC)[C@@H](C)CC)C(=O)N[C@@H](CCCCN)C(=O)N[C@@H](CCCCN)C(=O)N[C@@H](CCCCNC(=O)CCOCCOCCOCCOCCNC(=O)c1ccc(CC2CCN(CCCN(C(=O)C3CCN(C(C)=O)CC3)c3ccc(C)c(Cl)c3)CC2)cc1)C(N)=O` [AP3P4E], the “binding to N36 by N-PAGE” value in experiment [3] is on record as “bound to N36”.

These data come from publication PMC10223265 (Viruses, 2023).
